In this experiment the target is Voltage-gated L-type calcium channel (Homo sapiens, UniProt Q13936+Q13698+Q01668+O60840). The experiment can be described thus: Inhibition of Cav1.2 current measured using QPatch automatic path clamp system in CHO cells expressing Cav1.2, beta-2 and alpha-2/delta-1 subunits. It is filed as functional, cell-based, Cricetulus griseus. The arrangement: ca sol conc 1.8 mM, temp Ambient.

Amino acid sequences for entries named in this document (tags omitted). A change or cut given only in a name is not applied to a line headed by its entry.
UniProt Q13936: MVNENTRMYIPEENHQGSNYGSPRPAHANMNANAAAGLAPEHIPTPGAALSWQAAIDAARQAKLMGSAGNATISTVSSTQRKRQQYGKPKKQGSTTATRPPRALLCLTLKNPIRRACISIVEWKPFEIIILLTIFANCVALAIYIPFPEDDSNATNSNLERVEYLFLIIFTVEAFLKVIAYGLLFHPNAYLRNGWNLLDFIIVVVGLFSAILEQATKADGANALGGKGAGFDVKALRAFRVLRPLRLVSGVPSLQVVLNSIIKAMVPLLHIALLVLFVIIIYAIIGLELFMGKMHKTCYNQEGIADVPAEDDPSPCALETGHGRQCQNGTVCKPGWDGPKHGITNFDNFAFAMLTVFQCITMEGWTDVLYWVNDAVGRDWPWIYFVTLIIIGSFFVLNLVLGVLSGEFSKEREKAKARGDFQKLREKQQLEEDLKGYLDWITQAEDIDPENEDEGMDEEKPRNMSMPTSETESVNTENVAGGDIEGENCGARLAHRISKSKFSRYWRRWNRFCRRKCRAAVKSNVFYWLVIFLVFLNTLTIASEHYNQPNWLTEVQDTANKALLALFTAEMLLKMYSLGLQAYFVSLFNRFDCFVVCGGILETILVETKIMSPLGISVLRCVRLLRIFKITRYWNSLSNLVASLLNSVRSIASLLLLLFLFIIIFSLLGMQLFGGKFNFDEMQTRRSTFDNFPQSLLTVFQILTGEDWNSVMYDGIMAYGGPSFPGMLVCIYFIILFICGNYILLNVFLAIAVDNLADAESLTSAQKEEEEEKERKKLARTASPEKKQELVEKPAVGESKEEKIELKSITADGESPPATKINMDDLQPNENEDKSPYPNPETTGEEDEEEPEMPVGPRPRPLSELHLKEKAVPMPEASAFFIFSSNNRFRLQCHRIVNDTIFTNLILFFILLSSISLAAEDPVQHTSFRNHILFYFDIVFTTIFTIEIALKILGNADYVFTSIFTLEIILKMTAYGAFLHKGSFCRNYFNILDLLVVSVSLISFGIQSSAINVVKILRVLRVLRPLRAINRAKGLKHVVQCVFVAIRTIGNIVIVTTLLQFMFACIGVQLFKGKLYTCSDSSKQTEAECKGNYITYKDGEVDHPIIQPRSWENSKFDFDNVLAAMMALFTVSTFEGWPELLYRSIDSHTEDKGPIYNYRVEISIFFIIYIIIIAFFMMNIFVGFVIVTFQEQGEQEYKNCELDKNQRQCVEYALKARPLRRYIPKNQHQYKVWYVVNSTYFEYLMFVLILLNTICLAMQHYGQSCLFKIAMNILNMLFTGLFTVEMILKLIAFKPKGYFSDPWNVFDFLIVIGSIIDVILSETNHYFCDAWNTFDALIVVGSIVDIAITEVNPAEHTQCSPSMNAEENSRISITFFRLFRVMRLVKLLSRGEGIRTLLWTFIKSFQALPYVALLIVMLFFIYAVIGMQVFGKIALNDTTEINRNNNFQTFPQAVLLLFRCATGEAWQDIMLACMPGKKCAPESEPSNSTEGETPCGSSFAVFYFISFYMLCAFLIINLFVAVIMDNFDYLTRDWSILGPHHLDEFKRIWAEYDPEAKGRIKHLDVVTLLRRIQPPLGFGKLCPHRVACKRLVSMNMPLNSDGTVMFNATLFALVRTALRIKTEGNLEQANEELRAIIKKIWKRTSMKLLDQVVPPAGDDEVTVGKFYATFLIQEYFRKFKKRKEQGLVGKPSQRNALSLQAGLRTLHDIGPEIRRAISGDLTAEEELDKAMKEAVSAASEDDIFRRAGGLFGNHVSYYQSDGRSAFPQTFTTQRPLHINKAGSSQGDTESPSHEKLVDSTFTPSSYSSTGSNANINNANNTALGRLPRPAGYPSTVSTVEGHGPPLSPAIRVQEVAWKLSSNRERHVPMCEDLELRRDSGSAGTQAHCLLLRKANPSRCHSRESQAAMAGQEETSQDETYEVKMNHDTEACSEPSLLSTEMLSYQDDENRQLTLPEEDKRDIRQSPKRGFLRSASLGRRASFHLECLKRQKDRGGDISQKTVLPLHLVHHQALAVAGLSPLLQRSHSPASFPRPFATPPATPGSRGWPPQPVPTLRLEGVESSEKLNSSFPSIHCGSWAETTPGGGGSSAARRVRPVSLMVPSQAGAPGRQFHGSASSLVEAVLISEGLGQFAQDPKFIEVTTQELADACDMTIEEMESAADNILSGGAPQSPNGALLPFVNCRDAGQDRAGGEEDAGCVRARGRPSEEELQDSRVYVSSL
UniProt Q01668: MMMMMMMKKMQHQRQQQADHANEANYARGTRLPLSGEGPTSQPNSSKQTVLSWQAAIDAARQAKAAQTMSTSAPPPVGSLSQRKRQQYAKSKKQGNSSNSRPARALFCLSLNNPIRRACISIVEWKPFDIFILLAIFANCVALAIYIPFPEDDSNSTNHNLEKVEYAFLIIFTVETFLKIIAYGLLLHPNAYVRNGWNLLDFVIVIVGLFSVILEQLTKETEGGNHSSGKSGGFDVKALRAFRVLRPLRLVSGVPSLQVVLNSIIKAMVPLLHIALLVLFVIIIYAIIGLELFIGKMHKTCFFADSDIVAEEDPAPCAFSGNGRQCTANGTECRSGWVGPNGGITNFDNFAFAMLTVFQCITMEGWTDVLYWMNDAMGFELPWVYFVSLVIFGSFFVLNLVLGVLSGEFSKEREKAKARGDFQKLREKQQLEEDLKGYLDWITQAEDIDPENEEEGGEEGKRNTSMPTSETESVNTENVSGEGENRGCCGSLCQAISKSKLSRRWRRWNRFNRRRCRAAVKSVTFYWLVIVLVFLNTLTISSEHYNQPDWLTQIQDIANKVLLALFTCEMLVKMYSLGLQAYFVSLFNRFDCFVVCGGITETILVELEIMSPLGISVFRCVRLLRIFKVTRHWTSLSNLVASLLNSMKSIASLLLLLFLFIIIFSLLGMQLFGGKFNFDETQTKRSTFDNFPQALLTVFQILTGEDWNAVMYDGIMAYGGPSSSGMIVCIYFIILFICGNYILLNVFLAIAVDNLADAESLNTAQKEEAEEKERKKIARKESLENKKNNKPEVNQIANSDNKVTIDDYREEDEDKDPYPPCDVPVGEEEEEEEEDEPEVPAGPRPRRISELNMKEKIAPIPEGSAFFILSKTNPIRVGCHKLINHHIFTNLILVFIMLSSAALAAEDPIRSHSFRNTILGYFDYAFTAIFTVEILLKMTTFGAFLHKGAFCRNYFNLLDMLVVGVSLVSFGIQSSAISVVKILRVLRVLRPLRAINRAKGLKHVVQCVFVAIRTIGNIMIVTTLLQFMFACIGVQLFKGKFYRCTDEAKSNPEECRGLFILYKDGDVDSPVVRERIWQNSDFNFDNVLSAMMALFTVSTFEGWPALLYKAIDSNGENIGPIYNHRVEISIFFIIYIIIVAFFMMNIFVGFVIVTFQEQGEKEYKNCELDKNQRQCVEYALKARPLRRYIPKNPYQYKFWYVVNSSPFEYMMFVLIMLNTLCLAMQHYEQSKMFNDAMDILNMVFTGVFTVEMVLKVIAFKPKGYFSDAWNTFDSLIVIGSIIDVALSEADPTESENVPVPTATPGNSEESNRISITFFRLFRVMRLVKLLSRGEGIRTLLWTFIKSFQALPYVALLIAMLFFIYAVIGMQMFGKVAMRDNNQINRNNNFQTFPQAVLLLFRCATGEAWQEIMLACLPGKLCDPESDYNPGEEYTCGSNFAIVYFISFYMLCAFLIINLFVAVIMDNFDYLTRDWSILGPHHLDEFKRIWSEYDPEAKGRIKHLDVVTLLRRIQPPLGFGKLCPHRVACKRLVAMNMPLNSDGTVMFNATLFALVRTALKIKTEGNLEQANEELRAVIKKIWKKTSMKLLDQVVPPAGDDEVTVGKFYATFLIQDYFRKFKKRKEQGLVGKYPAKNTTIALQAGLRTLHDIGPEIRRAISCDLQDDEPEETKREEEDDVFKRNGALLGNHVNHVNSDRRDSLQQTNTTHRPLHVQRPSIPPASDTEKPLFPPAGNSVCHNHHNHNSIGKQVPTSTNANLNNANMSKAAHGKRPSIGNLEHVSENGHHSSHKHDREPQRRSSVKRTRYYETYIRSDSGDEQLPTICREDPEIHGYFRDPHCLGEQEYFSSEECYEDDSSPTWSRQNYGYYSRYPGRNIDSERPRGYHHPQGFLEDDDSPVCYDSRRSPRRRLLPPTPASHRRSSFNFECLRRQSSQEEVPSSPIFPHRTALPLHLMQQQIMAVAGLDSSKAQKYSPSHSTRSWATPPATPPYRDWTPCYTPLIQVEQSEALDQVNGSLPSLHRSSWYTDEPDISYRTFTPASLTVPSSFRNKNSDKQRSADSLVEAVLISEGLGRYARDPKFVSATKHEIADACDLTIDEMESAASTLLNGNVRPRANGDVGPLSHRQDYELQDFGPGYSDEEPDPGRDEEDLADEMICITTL
UniProt O60840: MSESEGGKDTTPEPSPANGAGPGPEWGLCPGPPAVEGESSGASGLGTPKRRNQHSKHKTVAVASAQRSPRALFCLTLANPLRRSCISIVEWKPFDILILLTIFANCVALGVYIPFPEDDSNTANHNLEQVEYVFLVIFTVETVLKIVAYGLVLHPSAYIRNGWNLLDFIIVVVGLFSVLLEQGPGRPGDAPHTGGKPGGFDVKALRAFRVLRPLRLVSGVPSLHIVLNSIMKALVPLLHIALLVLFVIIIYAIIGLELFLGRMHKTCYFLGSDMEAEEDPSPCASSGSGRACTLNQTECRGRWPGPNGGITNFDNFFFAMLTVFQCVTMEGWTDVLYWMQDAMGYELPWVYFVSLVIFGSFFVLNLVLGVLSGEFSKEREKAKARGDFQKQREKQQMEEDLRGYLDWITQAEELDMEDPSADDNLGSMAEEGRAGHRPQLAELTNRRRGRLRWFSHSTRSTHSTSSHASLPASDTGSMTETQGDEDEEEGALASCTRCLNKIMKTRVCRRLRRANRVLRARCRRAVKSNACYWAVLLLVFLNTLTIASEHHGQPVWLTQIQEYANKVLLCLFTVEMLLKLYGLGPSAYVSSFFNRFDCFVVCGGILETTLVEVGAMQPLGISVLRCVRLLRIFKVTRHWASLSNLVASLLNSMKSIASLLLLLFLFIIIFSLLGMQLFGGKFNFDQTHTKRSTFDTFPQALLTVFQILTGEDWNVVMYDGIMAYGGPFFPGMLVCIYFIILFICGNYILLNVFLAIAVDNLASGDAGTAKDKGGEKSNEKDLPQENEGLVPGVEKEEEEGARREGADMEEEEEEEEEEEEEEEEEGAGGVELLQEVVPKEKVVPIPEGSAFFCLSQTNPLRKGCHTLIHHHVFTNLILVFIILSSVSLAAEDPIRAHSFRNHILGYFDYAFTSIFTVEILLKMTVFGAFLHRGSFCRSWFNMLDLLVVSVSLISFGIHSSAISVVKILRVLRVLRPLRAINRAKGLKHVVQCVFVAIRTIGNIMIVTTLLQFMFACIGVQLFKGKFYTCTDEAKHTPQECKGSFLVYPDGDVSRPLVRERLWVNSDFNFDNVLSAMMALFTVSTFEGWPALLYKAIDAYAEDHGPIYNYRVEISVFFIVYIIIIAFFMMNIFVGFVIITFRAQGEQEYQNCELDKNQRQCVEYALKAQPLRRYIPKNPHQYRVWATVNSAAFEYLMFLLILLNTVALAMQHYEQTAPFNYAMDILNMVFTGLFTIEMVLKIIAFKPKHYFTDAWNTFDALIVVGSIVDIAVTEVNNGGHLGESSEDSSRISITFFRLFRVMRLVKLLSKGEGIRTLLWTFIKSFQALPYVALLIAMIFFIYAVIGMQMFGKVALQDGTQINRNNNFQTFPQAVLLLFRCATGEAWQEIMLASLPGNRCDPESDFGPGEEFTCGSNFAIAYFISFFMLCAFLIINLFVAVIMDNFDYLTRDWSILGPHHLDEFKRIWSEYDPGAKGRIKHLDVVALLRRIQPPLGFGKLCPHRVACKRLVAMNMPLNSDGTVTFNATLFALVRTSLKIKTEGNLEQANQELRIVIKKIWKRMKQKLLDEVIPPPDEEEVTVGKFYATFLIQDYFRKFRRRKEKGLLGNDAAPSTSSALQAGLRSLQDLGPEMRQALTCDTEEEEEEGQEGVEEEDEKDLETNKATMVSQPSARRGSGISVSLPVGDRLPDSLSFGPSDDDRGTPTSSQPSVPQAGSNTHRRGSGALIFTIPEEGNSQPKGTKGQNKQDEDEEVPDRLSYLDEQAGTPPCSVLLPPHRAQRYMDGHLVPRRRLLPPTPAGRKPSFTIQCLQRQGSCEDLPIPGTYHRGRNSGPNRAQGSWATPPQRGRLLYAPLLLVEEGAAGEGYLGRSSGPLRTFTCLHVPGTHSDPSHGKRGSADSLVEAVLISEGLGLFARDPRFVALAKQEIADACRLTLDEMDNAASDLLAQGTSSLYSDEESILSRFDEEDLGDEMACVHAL

The record followed here is ChEMBL document CHEMBL3436045 (Sci Rep, 2013).

Take `Cc1nc(Nc2ncc(C(=O)Nc3c(C)cccc3Cl)s2)cc(N2CCN(CCO)CC2)n1.O` [DASATINIB]: the half-maximal inhibitory concentration (IC50) is 81.1 µM.

What is called IC50 is the concentration at which inhibition is half-maximal.
